According to patent US20240240224A1, “FLUORESCENT D-TYPE AMINO ACID METABOLISM MARKER-BASED METHOD FOR DETECTING ANTIBACTERIAL DRUG SENSITIVITY TEST” (priority 2020, published 2024):

Key:
[1] = test system: alveolar lavage fluid sample 0204, A. baumannii; assay: BMD susceptibility test of patient alveolar lavage fluid; type: cell-based, Acinetobacter baumannii; conditions: unit assumed
Excerpt: The results of antimicrobial susceptibility test of alveolar lavage fluid of seven patients using FDAA and BMD methods are shown in the following table. The drug-resistant bacteria are shown in bold.

[2] = test system: A. baumannii Ab16; assay: BMD susceptibility test; type: cell-based, Acinetobacter baumannii; conditions: unit assumed
[3] = test system: A. baumannii Ab16; assay: FaAST (FDAA metabolic labeling); type: cell-based, Acinetobacter baumannii; conditions: unit assumed
Description: (§1) The specific experimental steps are as follows: • 1. Take the colony to be tested that has been cultured overnight on the plate and fully mix it in normal saline to make a uniform bacterial solution. Dilute it into CAMHB medium to make a bacterial solution with OD600=0.05. • 2. Add 45 μl antibiotic solutions to be tested of different concentrations to 96-well plates (see Table 3 for antibiotic concentration gradient settings). • 3. Add 50 μl of bacterial solution prepared in Step 1 to the 96-well plate and mix well. • 4.5 μl of 10 mM Cy5-DAA probe was added to each well (final concentration was 0.15 mM, and its structure was shown in FIG. 1). After mixing, the probe was incubated for 2 hours in the dark. • 5. After dilution with 200 μl PBS solution, the fluorescence intensity of each sample was detected by flow cytometry.

[4] = test system: K. pneumoniae Kp9; assay: BMD susceptibility test; type: cell-based, Klebsiella pneumoniae; conditions: unit assumed
[5] = test system: K. pneumoniae Kp9; assay: FaAST (FDAA metabolic labeling); type: cell-based, Klebsiella pneumoniae; conditions: unit assumed
Description: as §1

[6] = test system: Klebsiella pneumoniae KPN9; assay: VITEK drug sensitivity test; type: cell-based; conditions: unit assumed
[7] = test system: Klebsiella pneumoniae KPN9; type: cell-based; conditions: DAA-Cy5-2 probe
Description: With reference to the flow chart of the rapid detection method of antimicrobial susceptibility test based on FDAA metabolic markers shown in FIG. 3, FDAA is used for the detection of antimicrobial susceptibility test of alveolar lavage fluid. The specific experimental steps are as follows: • 1. Mix bronchoalveolar lavage fluid (BALF, 10 ml) of patients with hospital acquired pneumonia with cation regulated broth medium (CAMHB, 10 ml) of twice the concentration to prepare the bacterial fluid to be tested. • 2. Add 45 μl antibiotic solutions of different concentrations to the 96-well plate separately (see Table 1 for antibiotic concentration gradient settings). • 3. Add 50 μl of the bacterial solution prepared in step 1 to the 96-well plate and mix well. • 4. Add 5 μl of 10 mM Cy5-DAA probe (final concentration 0.15 mM, see FIG. 1 for its structure) into each well, mix well, and then cultivate in dark for 2 hours. • 5. Add 200 μl PBS solution for dilution, and then use flow cytometry to detect the fluorescence intensity of each sample. The flow detection results are shown in FIG. 11-13 (imipenem: IPM; Levofloxacin: LEV; Tigecycline: TGC).
The specific steps are the same as in Example 5. […] The minimum inhibitory concentration of antibiotics was obtained according to the fluorescence signal intensity of flow detection, and the statistical results are shown in Table 7.

Structure (SMILES)	BMD (MIC) [1] [µg/mL]	BMD (MIC) [2] [µg/mL]	FaAST (MIC) [3] [µg/mL]	BMD (MIC) [4] [µg/mL]	FaAST (MIC) [5] [µg/mL]	MIC, VITEK [6] [µg/mL]	MIC, FaAST [7] [µg/mL]
CC(=O)NC[C@H]1CN(c2ccc(N3CCOCC3)c(F)c2)C(=O)O1 [Linezolid, linezolid]	256	–	–	–	–	–	–
NCC[C@H](O)C(=O)N[C@@H]1C[C@H](N)[C@@H](O[C@H]2O[C@H](CN)[C@@H](O)[C@H](O)[C@H]2O)[C@H](O)[C@H]1O[C@H]1O[C@H](CO)[C@@H](O)[C@H](N)[C@H]1O [Amikacin]	–	> 256	> 256	> 256	> 256	256 (≈ 437 µM)	256 (≈ 437 µM)
C[C@@H](O)[C@H]1C(=O)N2C(C(=O)O)=C(SCCN=CN)C[C@H]12 [Imipenem, imipenem]	–	–	–	–	256	–	–

In brackets after ≈: the same amount, converted by molar mass.
